Measured values as given in ChEMBL document CHEMBL1141158, “New 5-hydroxytryptamine(1A) receptor ligands containing a norbornene nucleus: synthesis and in vitro pharmacological evaluation” (J Med Chem, 2005).

Chains of the proteins cited; added tags and fusions are not shown.
UniProt P19327, whole entry: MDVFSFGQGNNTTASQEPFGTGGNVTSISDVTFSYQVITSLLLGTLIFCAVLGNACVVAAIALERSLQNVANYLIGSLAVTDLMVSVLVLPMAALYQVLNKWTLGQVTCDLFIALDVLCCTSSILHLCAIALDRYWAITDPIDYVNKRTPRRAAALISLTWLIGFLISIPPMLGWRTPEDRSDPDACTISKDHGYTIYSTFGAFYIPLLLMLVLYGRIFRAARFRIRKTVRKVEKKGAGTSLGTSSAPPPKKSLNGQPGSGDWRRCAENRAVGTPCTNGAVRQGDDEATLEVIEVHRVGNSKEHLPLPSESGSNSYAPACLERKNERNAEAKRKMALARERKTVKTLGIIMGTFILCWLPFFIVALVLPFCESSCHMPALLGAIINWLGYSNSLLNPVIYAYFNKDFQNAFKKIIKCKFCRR

Molecular target: 5-hydroxytryptamine receptor 1A (Rattus norvegicus, UniProt P19327)
Assay: Inhibition of [3H]8-OH-DPAT binding to Serotonin 5-HT1A receptor from rat brain cortex

Question: With `O=C1C2C3C=CC(C3)C2C(=O)N1OCCN1CCN(c2ccccc2Cl)CC1` (stereo unspecified) as the compound, how does the Ki read?
Answer: Its Ki is 7.12 nM.
